Assay: excess molar enthalpy (molar enthalpy of mixing); xn = mol fraction of the nth substance listed
Conditions: 298.15 K, 101 kPa, Liquid, Flow calorimetry

CCCCOCCCC [dibutyl ether] + CCCCO
Conditions	excess molar enthalpy [kcal/mol]
x1 = 0.0501	0.0285
x1 = 0.1002	0.0564
x1 = 0.1497	0.0823
x1 = 0.2003	0.107
x1 = 0.2503	0.129
x1 = 0.3004	0.1493
x1 = 0.3498	0.1669
x1 = 0.4006	0.1821
x1 = 0.4507	0.1946
x1 = 0.4997	0.2039
x1 = 0.5506	0.2103
x1 = 0.5998	0.2133
x1 = 0.6505	0.2129
x1 = 0.7	0.2086
x1 = 0.7509	0.1991
x1 = 0.8	0.1847
x1 = 0.8501	0.162
x1 = 0.8994	0.13
x1 = 0.9493	0.0789

CCCCOCCCC [dibutyl ether] + C1CCCCC1
Conditions	excess molar enthalpy [kcal/mol]
x1 = 0.0499	0.018
x1 = 0.0997	0.0321
x1 = 0.1502	0.0431
x1 = 0.2002	0.0513
x1 = 0.2497	0.057
x1 = 0.2999	0.061
x1 = 0.35	0.0633
x1 = 0.3996	0.0642
x1 = 0.4497	0.0637
x1 = 0.499	0.062
x1 = 0.5495	0.0593
x1 = 0.6	0.0556
x1 = 0.6491	0.0511
x1 = 0.6992	0.0457
x1 = 0.7501	0.0392
x1 = 0.799	0.0327
x1 = 0.85	0.0249
x1 = 0.9001	0.0166
x1 = 0.9507	0.00784
